The values that follow come from patent US20260384400A1, “IMIDAZOLYL BINDS WITH DINITROPHENYL DERIVATIVES AND USE THEREOF” (published 2026).

Converted amounts (≈) assume the structure as drawn.

Series [1] in a line: Thermodynamic solubility determination. The settings on record: 37 °C, 24 hours.
The nature of series [2]: Mouse pharmacokinetic study, plasma concentration (Cmax of plasma DNP) after oral dosing. The note with it: p.o.; for Cmax of plasma DNP after dosing: analyte: plasma DNP; for AUClast: plasma; for Cmax: plasma (Table 3, The PK results).

The term Solubility denotes the concentration that dissolves in the medium under given conditions. As usually defined, the Cmax is the highest concentration seen after dosing. As to `COCCn1cc(COc2ccc([N+](=O)[O-])cc2[N+](=O)[O-])nc1[N+](=O)[O-]`, the Solubility came out at 6.16 µg/mL (≈ 16.8 µM) in series [1] (FaSSGF (pH 1.6)) and 5.72 µg/mL (≈ 15.6 µM) in series [1] (FaSSIF (pH 6.5)). Also, the “Cmax of plasma DNP after dosing” value in series [2] (5 mg/kg) turned out to be 2010 ng/mL; in series [2] (10 mg/kg), 2477 ng/mL; in series [2] (20 mg/kg), 4870 ng/mL; in series [2] (30 mg/kg), 5880 ng/mL; in series [2] (50 mg/kg) it was 9045 ng/mL; in series [2] (100 mg/kg) it was 19533 ng/mL. For the same compound, the entries for the “Cmax of plasma DNP after dosing” value in series [2] (600 mg/kg), in series [2] (1000 mg/kg) and in series [2] (2000 mg/kg) were 11090 ng/mL, 22321 ng/mL and 14493 ng/mL, respectively. Besides, the AUClast was 8124 ng·h/mL in series [2] (5 mg/kg), 10598 ng.h/m L in series [2] (10 mg/kg) and 26493 ng·h/mL in series [2] (20 mg/kg). Besides, the maximum concentration (Cmax) in series [2] (5 mg/kg) is 2010 ng/mL; in series [2] (10 mg/kg) it was 2477 ng/mL; in series [2] (20 mg/kg) it was 4870 ng/mL. Also, the “Cmax compared with Compound HU6” value in series [2] (at each dose, vs Compound HU6) was “lower than Compound HU6 at each dose”. Besides, in series [2] (all the dose range, vs Compound HU6), the “exposure level compared with Compound HU6” value was “significantly lower than that of Compound HU6”. The “exposure level compared with oral DNP directly” value in series [2] (vs DNP) is on record as “lower oral DNP directly”.
